## Yeast mating assay B: variants of the scFv Ab-14

Target peptide (SARS-CoV-2 spike, HR2 region): PDVDLGDISGINAS

Parent scFv Ab-14: VH joined to VL by the linker GGGGSGGGGSGGGGS. Changes lie in the heavy chain CDRs alone.
VH: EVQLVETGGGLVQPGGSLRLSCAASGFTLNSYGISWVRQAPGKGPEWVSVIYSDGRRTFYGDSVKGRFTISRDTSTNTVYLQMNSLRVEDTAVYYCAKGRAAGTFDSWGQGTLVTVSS
VL: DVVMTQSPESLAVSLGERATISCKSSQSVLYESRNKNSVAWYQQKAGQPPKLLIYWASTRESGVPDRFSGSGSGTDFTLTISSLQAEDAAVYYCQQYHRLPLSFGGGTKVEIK

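The parent was found by panning a naive human phage display library on the peptide. This is the validation round: designs drawn from the data on random variants, tested in the same kind of assay. Group labels follow the data file (Ctrl: baseline library sampled from a position-specific scoring matrix, with some repeated check sequences; Rand: our label for a block that the file lists under HC and that is probably the random mutants of the ten best first-round binders; En: ensemble of fine-tuned language models; GP: Gaussian process model; GPLM: also part of the Gaussian process libraries; HC: hill climbing; Gen: genetic algorithm; Gibbs: Gibbs sampling; a sequence that several methods proposed may carry one label only). Affinity was read by AlphaSeq, a pooled yeast mating assay with surface-displayed partners. The frequency of each diploid, read from paired DNA barcodes, reflects how well the two displayed proteins bind. Scores were corrected for input abundance and mapped to Kd with protein pairs of known affinity run in the same pool. The assay was run in six technical replicates.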

The parent's heavy chain CDRs are GFTLNSYGIS, VIYSDGRRTFYGDSVK, GRAAGTFDS; each variant's own CDRs replace them letter for letter.
Affinities are written as log10 Kd with Kd in nM; a lower number is a better binder.
A pair that was not seen in that replicate is written "ND"; this usually means weak binding, but a binder can also be missed.
Values of this round are not directly comparable with the first-round values of the same sequences.
The authors' rule: three or more of the six replicates give a measured affinity, fewer mean a poor binder.
Nonspecific signal, from three strains lacking the peptide, appeared in 1% of pairings of all heavy chain designs, centred on 2.08 (5% of these signals below 0.84); values are not corrected for it.
Of ten entries with the parent sequence, four were seen in most replicates (averages 0.34 to 2.37), three in one and three in none, so single entries are noisy.

log10 Kd (nM) by replicate,CDR-H1,CDR-H2,CDR-H3,group
0.55 / 0.60 / 0.21 / 0.22 / 0.80 / 0.99,HFDLNSYGIS,VIYSDGRRTFYADSVK,GQAAGTFDS,GPLM_Gen
-0.41 / -0.37 / -0.28 / -0.37 / -0.44 / -0.34,GFDLNEYGIS,VIYADGKRTFYTDDVK,GEVAGTFDL,En_HC
0.15 / 0.00 / 0.10 / -0.20 / 0.21 / 0.16,GFSLNDYGIS,VIYSDGRRTFYGDHVK,GRTAGTFDA,GP_Gibbs
ND / ND / ND / ND / ND / ND,GFELNEYGIS,VIYSDGRRTFYGDWVK,GRTAGTFDS,GP_Gen
2.51 / ND / 2.19 / ND / 2.65 / 3.52,GFDIEEYGIS,VIYADGVRTVYADDVK,GIAKGSSLT,En_Gibbs
0.31 / 0.44 / 0.52 / 0.70 / 0.59 / 0.65,GFSLNEYGIS,VIYSDGRRTFYHDSVK,GNAAGTFDS,GP_Gen
ND / ND / ND / ND / ND / ND,GFTLNDYGIS,VFYSDGRRTQYGDSVK,GRAALTNIQ,Rand
1.32 / 0.88 / 1.01 / 1.06 / 0.95 / 1.38,GFTLDSYGIS,VIYSDGRRTFYSDSVK,GRAAGTFDR,GP_HC
-0.36 / -0.57 / -0.42 / -0.64 / -0.44 / -0.37,GFDLNEYGIS,VIYADGMRTFYTDSVK,GTNAGTFDV,En_HC
0.60 / 0.39 / 0.10 / 0.27 / 1.11 / -0.18,GFDLNEYGIS,VIYADGRRSAYADSVK,GQNAGTFDV,En_HC
ND / 0.15 / ND / ND / ND / 0.76,GFTLNSYGIS,VIYSDGRRTFYGDSVK,GAAAGSIDS,Ctrl
0.68 / 0.72 / -0.14 / 1.39 / 0.74 / 0.29,GFDLDEYGIS,VIYADGKRTAYSDSVK,GETAGTFDT,En_Gen
ND / ND / ND / ND / ND / ND,GFNLGEYGIS,VIYADGKRMAYAWSVK,GKSAGTFNH,En_Gibbs
ND / ND / ND / ND / ND / ND,GFDLNSYGIS,VIYSDGRRTFYVDSVK,GRTAGTFDT,GP_Gen
ND / ND / ND / ND / ND / ND,GFTLNSYGIS,VMYSDGRRCFYGDSVR,GRIPGTFDS,Ctrl
ND / ND / ND / ND / ND / ND,GFDLNSYGIS,VIYSDGRRTFYGDSVK,GRAAGYFDS,GPLM_HC
ND / ND / ND / ND / ND / ND,GFTLNAAGIS,VIGSDGRRTFYGDSVK,GRAAGTNKS,Rand
1.15 / 1.09 / 0.12 / 0.16 / 0.40 / 0.93,GFELNRYGIS,VIYSDGRRTAYQDSVK,GRAAGTFDS,GP_HC
0.86 / 0.68 / 0.60 / 0.77 / 0.41 / 1.42,GFTLEDYGIS,VIYSDGRRTMYGDSVK,GRAAGTFDS,Ctrl
-0.19 / -0.25 / -0.28 / 0.23 / -0.50 / 0.42,GFDLDEYGIS,VIYADGQRTAYSDSVK,GENAGTFDL,En_Gen
-0.46 / -0.78 / -0.78 / -0.62 / -0.56 / -0.53,GFDLNEYGIS,VIYADGMRTFYADDVK,GNNAGTFDL,En_Gen
ND / 1.99 / ND / ND / ND / ND,GFDLQEYGIS,VIYADGHRTAYKQKVK,GQIAGGQFD,En_Gibbs
0.17 / 0.47 / 0.30 / 0.09 / 0.16 / -0.03,GFTLNSYGIS,VIYSDGRRTFYSDSVK,GQEAGTFDS,GPLM_Gen
0.21 / 0.15 / 1.28 / 1.00 / 0.21 / 0.84,GFELNSYGIS,VIYSDGRRTFYHDSVK,GEAAGTFDS,GP_Gen
-0.04 / -0.05 / 0.05 / -0.06 / -0.17 / 0.14,GFTLNEYGIS,VIYADGRRTFYGDSVK,GRAAGTFDL,GP_HC
ND / ND / ND / ND / ND / ND,GFTLNSYGIS,VIYSDGRRTFYGDSVK,GRAAWHFES,Ctrl
0.24 / 0.50 / 0.21 / 0.33 / 0.25 / 0.29,GFGLNSYGIS,VIYADGRRTFYGDSVK,GNAAGTFDS,GPLM_Gibbs
0.58 / -0.27 / -0.17 / -0.50 / -0.36 / -0.35,GFTLNSYGIS,VIYSDGRRTFYTDSVK,GHEAGTFDS,GPLM_HC
-0.64 / -0.87 / -0.78 / -0.71 / -0.52 / -0.69,GFDLNEYGIS,VIYADGRRTFYSDSVK,GEAAGTFNM,En_HC
ND / ND / ND / ND / ND / ND,GKSLNEMGIS,VIYADGHRKMYANDVK,GHVGAIFMM,En_Gibbs
1.73 / 0.96 / 2.10 / 1.02 / 0.76 / 1.24,GFTINSYGIS,VIYSDGRRTFYNDSVK,GNIAGTMDS,Ctrl
0.32 / 0.17 / -0.30 / -0.52 / 0.66 / 0.29,GFDLEDYGIS,VIYADGMRTAYADSVK,GQNAGTFDV,En_Gen
-0.55 / -0.51 / -0.58 / -0.74 / -0.48 / -0.21,GFDLNEYGIS,VIYADGMRTSYADSVK,GEVAGTFDQ,En_Gen
0.30 / 0.11 / -0.15 / 0.00 / -0.09 / 0.29,GFSLNSYGIS,VIYSDGRRTFYADSVK,GDVAGTFDS,GPLM_Gen
-0.42 / -0.26 / -0.52 / -0.54 / -0.51 / -0.29,GFTLNQYGIS,VIYSDGRRTFYSDSVK,GQEAGTFDS,GPLM_HC
ND / ND / ND / ND / ND / ND,GFGLMDYGIS,VIYADGMRRSYANSVK,GKHAGIFDF,En_Gibbs
ND / ND / ND / ND / ND / ND,GKGLDEYGIS,VIYADGVRKAYQQSVK,GQVGFFIRV,En_Gibbs
0.17 / 0.63 / -0.45 / -0.10 / -0.66 / 0.00,GFTLNNYGIS,VIYSDGQRTFYSDSVK,GRAAGTFDS,GPLM_HC
ND / ND / ND / ND / ND / ND,GFNLNSYGIH,VIYSDGRRTFYRDQVK,GRAAGTFDS,Ctrl
ND / ND / ND / ND / ND / ND,GFQLNDYGIS,VIYSDGRRTFYGDSVK,GRAAGTFWS,GP_HC
ND / ND / ND / ND / ND / 2.88,GFTLNSYGIS,VIMSDGRRTFYGDSVK,CRAAGTFDS,Ctrl
ND / ND / 3.13 / ND / ND / ND,GFDLNEYGIS,VIYADGARSFYTDKVK,GVTVGDNGT,En_Gibbs
0.73 / 0.72 / 0.32 / 1.89 / 0.78 / 1.12,GFDLTQYGIS,VIYSDGRRTFYGDSVK,GRAAGTFDD,Ctrl
ND / ND / ND / ND / ND / ND,GFTLNSYGIS,VIYSDGRRNFYQDSVK,GRAAGTFDS,Ctrl
-1.29 / -1.11 / -1.19 / -1.40 / -1.33 / -0.93,GFDLDEYGIS,VIYADGRRTFYADSVK,GTLAGTFDV,En_HC
ND / ND / ND / ND / ND / ND,GFTLDSYGIS,VIYSDGRRTFYGDSVK,GRAAGTFWD,GPLM_HC
-0.25 / -0.48 / -0.34 / -0.69 / -0.59 / -0.17,GFDLNEYGIS,VIYSDGRRTFYTDSVK,GREAGTFDS,GP_HC
0.55 / 0.51 / 0.08 / 0.22 / 0.29 / 0.38,GFSIDEYGIS,VIYADGLRQFYTNAVK,GEAAGTLDM,En_Gibbs

The first 6 entries again:

CDR-H1,CDR-H2,CDR-H3,group,log10 Kd (nM) by replicate
HFDLNSYGIS,VIYSDGRRTFYADSVK,GQAAGTFDS,GPLM_Gen,0.55 / 0.60 / 0.21 / 0.22 / 0.80 / 0.99
GFDLNEYGIS,VIYADGKRTFYTDDVK,GEVAGTFDL,En_HC,-0.41 / -0.37 / -0.28 / -0.37 / -0.44 / -0.34
GFSLNDYGIS,VIYSDGRRTFYGDHVK,GRTAGTFDA,GP_Gibbs,0.15 / 0.00 / 0.10 / -0.20 / 0.21 / 0.16
GFELNEYGIS,VIYSDGRRTFYGDWVK,GRTAGTFDS,GP_Gen,ND / ND / ND / ND / ND / ND
GFDIEEYGIS,VIYADGVRTVYADDVK,GIAKGSSLT,En_Gibbs,2.51 / ND / 2.19 / ND / 2.65 / 3.52
GFSLNEYGIS,VIYSDGRRTFYHDSVK,GNAAGTFDS,GP_Gen,0.31 / 0.44 / 0.52 / 0.70 / 0.59 / 0.65

Values reported by Li et al. 2023, doi:10.1038/s41467-023-39022-2 (FLAb copy).